Source: patent US20200277399A1

Molecular target: EGFR on EGFR-positive cells (MB-MDA468, A431) (UniProt P00533)
Assay: cell-based or functional assay

proliferation of A431 cells, % control (WST-1), Ab 0.0002 nM: 98.3 % control | proliferation of A431 cells, % control (WST-1), Ab 0.0009 nM: 97.5 % control | proliferation of A431 cells, % control (WST-1), Ab 0.0043 nM: 115 % control | proliferation of A431 cells, % control (WST-1), Ab 0.0213 nM: 108 % control | proliferation of A431 cells, % control (WST-1), Ab 0.1066 nM: 104 % control | proliferation of A431 cells, % control (WST-1), Ab 0.5328 nM: 96.8 % control | proliferation of A431 cells, % control (WST-1), Ab 2.6640 nM: 61.1 % control | proliferation of A431 cells, % control (WST-1), Ab 13.3200 nM: 44.9 % control | proliferation of A431 cells, % control (WST-1), Ab 66.6000 nM: 24.5 % control | proliferation of MB-MDA468 cells, % control (WST-1), Ab 0.000 nM: 103 % control | proliferation of MB-MDA468 cells, % control (WST-1), Ab 0.001 nM: 97 % control | proliferation of MB-MDA468 cells, % control (WST-1), Ab 0.004 nM: 98.4 % control | proliferation of MB-MDA468 cells, % control (WST-1), Ab 0.021 nM: 99.9 % control | proliferation of MB-MDA468 cells, % control (WST-1), Ab 0.107 nM: 96.7 % control | proliferation of MB-MDA468 cells, % control (WST-1), Ab 0.533 nM: 74 % control | proliferation of MB-MDA468 cells, % control (WST-1), Ab 2.664 nM: 32.8 % control | proliferation of MB-MDA468 cells, % control (WST-1), Ab 13.320 nM: 29.8 % control | proliferation of MB-MDA468 cells, % control (WST-1), Ab 66.600 nM: 17.5 % control
Substance: CX_N325CL328C mal-val-cit-MMAE (antibody)
